Usually Kd stands for the free concentration of one partner at which half of the binding sites on the other are occupied at equilibrium, for simple one-to-one binding. What is called koff is the first-order rate constant of dissociation. Low readings indicate slow dissociation, high ones fast dissociation.

The chains behind the UniProt entries cited, without tags or fusion partners. Residues count along the entry.
UniProt P05019, 49-118 limits assumed: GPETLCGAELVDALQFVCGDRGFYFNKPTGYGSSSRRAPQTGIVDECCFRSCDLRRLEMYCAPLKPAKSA

Test [1] concerns the target human IGF-1 (human) (UniProt P05019). Put plainly: SPR (Biacore 3000), multi-cycle, ligand titrated over amine-coupled Trap, 1:1 kinetic model, n=4. On the technique in general: SPR reads the build-up and loss of mass on a sensor chip optically.
For test [2] the target is unchanged. Put plainly: SPR, multi-cycle, Trap flowed over amine-coupled ligand, 1:1 kinetic model, n=4.
Test [3] addresses ligand-immobilized surfaces (hIGF-I, mIGF-I and hIGF-II). Put plainly: SPR, multi-cycle, Trap flowed over ligand-immobilized surfaces; ligand not named.

The substance “Trap B: His-tagged h-sIGF1R purified from 293 cells (from UniProt P08069 31-935) (receptor)” displayed a Kd in test [1] of 8 nM.

Consider “Trap D: h-sIGF1R, purified from CHO cells by calcium hydroxyapatite (CHT) column followed by gel filtration (GF) (from UniProt P08069 31-935) (receptor)”, for which the Kd is 11 nM in test [2] and 13 nM in test [1]. Further, in test [3], the koff is 0.0008 s⁻¹.
